Measured values: US20240383908A1, “SYNTHESIS AND APPLICATION OF PHOSPHATASE DEGRADER” (HINOVA PHARMACEUTICALS INC., priority 2021, published 2024)

Amino acid sequences for entries named in this document (tags omitted).
UniProt Q06124, whole entry: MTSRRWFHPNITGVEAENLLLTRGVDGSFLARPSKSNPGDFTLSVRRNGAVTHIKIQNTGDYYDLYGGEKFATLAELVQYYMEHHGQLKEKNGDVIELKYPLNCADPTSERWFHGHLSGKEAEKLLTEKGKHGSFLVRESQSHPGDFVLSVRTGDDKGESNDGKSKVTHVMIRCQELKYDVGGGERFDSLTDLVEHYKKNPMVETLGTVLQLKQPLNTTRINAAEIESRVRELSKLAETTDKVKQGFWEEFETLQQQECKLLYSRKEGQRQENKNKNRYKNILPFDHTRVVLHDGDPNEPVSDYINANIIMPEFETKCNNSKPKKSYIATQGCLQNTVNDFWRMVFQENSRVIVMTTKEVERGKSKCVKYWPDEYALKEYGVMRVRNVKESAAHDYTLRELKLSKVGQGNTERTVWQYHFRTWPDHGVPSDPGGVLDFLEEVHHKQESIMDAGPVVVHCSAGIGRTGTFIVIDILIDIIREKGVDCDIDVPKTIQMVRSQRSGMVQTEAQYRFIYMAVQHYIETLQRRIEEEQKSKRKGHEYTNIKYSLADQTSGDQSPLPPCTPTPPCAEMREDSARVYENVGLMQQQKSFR

How the values were obtained:
[1] = molecular target: T1, SHP2 protein (Homo sapiens, UniProt Q06124); experiment: Degradation activity on SHP2 protein in NCI-H358 cells (Western blot, DC50); details: read-out: Degradation activity for differenct cell lines NCI-H358 (DC50)
Protocol: (§1) (1) MV-411 cells were cultured in the cell culture medium, and then well-growing cells were selected and inoculated in a 12-well plate, with 1 mL/well and 1×10^6 cells/well. The plate was incubated overnight in a 5% CO2 cell incubator at 37° C.
(§2) (2) 10 mM storage solution of each drug was prepared using dimethylsulfoxide (DMSO). The stock solution was diluted gradually with DMSO before use, and then 1 μL of the compound solution was added to the cell culture well (to ensure that the DMSO concentration in the culture system was […]), so that the final drug concentration is 100 nM, 10 nM, 3 nM, 1 nM, 0.3 nM, and 0.1 nM. Two wells were set for each concentration. The plate was gently shaken and mixed. Additionally, negative control wells (containing an equal amount of DMSO) and positive control wells were included.
(§3) (3) After 24 hours of cultivation, the cells were lysed using RIPA cell lysate, and the proteins were extracted. The protein concentration was measured using a BCA assay kit. 5× concentrated protein buffer was loaded, heated at 100° C. for 5 min, and then the sample was stored at −20° C.
(§4) (4) For each well, 30 μg of protein was loaded to polyacrylamide gel for electrophoresis. […]
(§5) (6) The images were analyzed with Image J grayscale, and the degradation ratio of protein bands in the test group was calculated, based on the negative control group (DMSO) (100%). […]

[2] = molecular target: T1, SHP2 protein; experiment: Degradation activity on SHP2 protein in MIA Paca-2 cells (Western blot, DC50); details: read-out: Degradation activity for differenct cell lines MIA Paca-2 (DC50)
Protocol: as §1, §2, §3, §4, §5

DC50 [1] | DC50 [2] | Structure (SMILES)
< 0.1 µM | < 0.1 µM | CC1(N)CCN(c2cnc(Sc3cccc(NC(=O)c4ccc(N5CCC(N6CC=C(c7cnc(C(=O)NCc8ccc9c(c8)CN(C8CCC(=O)NC8=O)C9=O)c(F)c7)CC6)CC5)cc4)c3)cn2)CC1 (stereo not drawn)
– | > 1 µM | C[C@@H]1OCC2(CCN(c3cnc(Sc4cccc(NCc5ccc(N6CCN(c7ccc(C(=O)NCc8ccc9c(c8)C(=O)N(C8CCC(=O)NC8=O)C9)nn7)CC6)c(F)c5)c4)cn3)CC2)[C@@H]1N (stereo partly drawn)
